Here are results for one compound from patent US20230285399A1, “Compound for the treatment and prophylaxis of a lipofuscin-associated disease and/or a disease associated with aged oxidized melanin” (EBERHARD KARLS UNIVERSITAET TUEBINGEN MEDIZINISCHE FAKULTAET, priority 2020, published 2023).

In one series the test system is function of the retina. The experiment in a line: Electroretinography (ERG) of eyes treated with Isoket, […] or IS 5. Particulars: after 48 hours, different light intensities (0.1, 1, 3, 10 cd.s/m2), dark adapted.

Only a part of the results on these compounds is given; other tests are left out.

Turning to `O=[N+]([O-])OCC(CO[N+](=O)[O-])(CO[N+](=O)[O-])CO[N+](=O)[O-]`, in the series with pigmented Abca^4−/− mice (intravitreal, right eye, after 48 hours, Isoket 80 μg, Pentalong 100 μg, IS 5 80 μg, vs untreated left eye), the “reduction of the amount of fluorescent lipofuscin granules” value is 20%. The “fluorescence of lipofuscin (fluorescence intensity, arbitrary units, FIG. 3)” value with pigmented Abca^4−/− mice (treated vs untreated eye from the same mouse) is given as “removed the fluorescence of lipofuscin”. Also, the “ERG responses, treated vs untreated eye” value with function of the retina is “no difference between the treated and the untreated eyes”.
